# Measured values as given in ChEMBL document CHEMBL5705901, “Exploiting selective BCL-2 family inhibitors to dissect cell survival dependencies and define improved strategies for cancer therapy” (Sci Transl Med, 2015).
# Chains of the proteins cited; added tags and fusions are not shown.
# UniProt P10415, whole entry, looked up: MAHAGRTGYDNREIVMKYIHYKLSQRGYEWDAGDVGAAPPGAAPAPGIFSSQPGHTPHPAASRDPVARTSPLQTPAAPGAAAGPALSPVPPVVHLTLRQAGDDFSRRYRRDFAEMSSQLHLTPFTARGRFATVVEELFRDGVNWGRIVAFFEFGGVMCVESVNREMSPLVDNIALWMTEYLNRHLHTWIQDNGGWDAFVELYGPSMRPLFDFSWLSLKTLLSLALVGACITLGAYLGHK
# UniProt O43521, whole entry, looked up: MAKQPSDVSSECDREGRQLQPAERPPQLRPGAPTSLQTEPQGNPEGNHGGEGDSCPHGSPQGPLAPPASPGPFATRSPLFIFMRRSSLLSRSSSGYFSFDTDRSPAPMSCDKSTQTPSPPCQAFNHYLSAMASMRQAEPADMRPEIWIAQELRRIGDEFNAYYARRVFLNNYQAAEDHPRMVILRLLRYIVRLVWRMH
# Calls of active or inactive are those of the source. The calls are words filed in the database; no cut-off is given here.
# Molecular target: BCL2/BCL2L11 (Homo sapiens) (UniProt P10415+O43521)
# Conditions: MOLT-4, dose 0.1-1000 nM, time 4.0 hrs
row,SMILES,inhibition
1,Cc1c(-c2ccc(N3CCc4cccc(C(=O)Nc5nc6ccccc6s5)c4C3)nc2C(=O)O)cnn1CC12CC3CC(CC(C3)C1)C2,Active
2,CN(C)CC#Cc1ccc(OCCCc2sc(N3CCc4cccc(C(=O)Nc5nc6ccccc6s5)c4C3)nc2C(=O)O)c(F)c1 [A-1155463],inactive
